Source: patent US6448405B1, “Steroid receptor modulator compounds and methods” (Ligand Pharmaceuticals Incorporated, priority 1994, dated 2002)

Tested on: ventral prostates (VP) and seminal vesicles (SV) of immature castrated rats
Assay: Immature castrated male rat model (antiandrogen activity)
Type: in vivo
Settings: TP dose used for antagonist tests

Compound `CCC(=O)O[C@H]1CC[C@H]2[C@@H]3CCC4=CC(=O)CC[C@]4(C)[C@H]3CC[C@]12C` [TP, Testosterone Propionate, reference compound] has an ED80 of 0.1 mg.
